Source: PubChem BioAssay (NCI)
“And” between values parts separate entries of the source, which are not always exact repeats. Identical values can stand only once. The entries are a selection whose mix differs from that of the whole data set.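 Treatment: one concentration, 48 hours, 96-well format. Scoring: percent growth, with anything below 10 considered active.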 The source made the active and inactive calls.

How the values were obtained:
Experiment in all cases: NCI-60 one-dose screen, 48 h (100 = growth as untreated, 0 = no growth, -100 = all killed)
HCT-15 colon = conditions: 10 µM unless noted
HT29 colon = conditions: 10 µM unless noted
SNB-75 CNS = conditions: 10 µM unless noted
SNB-19 CNS = conditions: 10 µM unless noted
U251 CNS = conditions: 10 µM unless noted
PC-3 prostate = conditions: 10 µM unless noted
SK-MEL-5 melanoma = conditions: 10 µM unless noted
UACC-62 melanoma = conditions: 10 µM unless noted
LOX IMVI melanoma = conditions: 10 µM
SK-MEL-28 melanoma = conditions: 10 µM unless noted

SMILES	growth (HCT-15 colon)	growth (HT29 colon)	growth (SNB-75 CNS)	growth (SNB-19 CNS)	growth (U251 CNS)	growth (PC-3 prostate)	growth (SK-MEL-5 melanoma)	growth (UACC-62 melanoma)	growth (LOX IMVI melanoma)	growth (SK-MEL-28 melanoma)
O=C(c1ccccc1)C(NCCCl)c1ccccc1 (stereo not drawn)	inactive: 95.7%	inactive: 78.2%	inactive: 98.1%	inactive: 98.2%	inactive: 100%	inactive: 84%	inactive: 99.2%	inactive: 91%	inactive: 99.7%	inactive: 99.1%
CN(CCCl)/N=N/c1nc2c([nH]1)c(=O)n(C)c(=O)n2C	inactive: 103%	inactive: 90.5%	inactive: 86.6%	inactive: 103%	inactive: 104%	inactive: 104%	inactive: 103%	inactive: 105%	inactive: 99.9%	inactive: 101%
COP(=O)(OC)N(CCCl)CCCl	inactive: 103%	inactive: 113%	inactive: 70.7%	inactive: 99.8%	inactive: 95%	inactive: 94.4%	inactive: 99.5%	inactive: 105%	inactive: 91.5%	inactive: 100%
CCCCOP(OCCCC)OCCCC	inactive: 90.5%	inactive: 93.6%	inactive: 99.6%	inactive: 110%	inactive: 104%	inactive: 115%	inactive: 102%	inactive: 114%	inactive: 100%	inactive: 112%
Cc1cc(C)cc(OP(=O)(Cl)Oc2cc(C)cc(C)c2)c1	inactive: 105%	inactive: 110%	inactive: 110%	inactive: 106%	inactive: 95.3%	inactive: 112%	inactive: 109%	inactive: 102%	inactive: 103%	inactive: 124%
O=[N+]([O-])c1ccc(-c2cc([N+](=O)[O-])c(O)c([N+](=O)[O-])c2)cc1	inactive: 97.9% and inactive: 104%	inactive: 104%	inactive: 107% and inactive: 105%	inactive: 102% and inactive: 109%	inactive: 104%	inactive: 95.7% and inactive: 97%	inactive: 107% and inactive: 105%	inactive: 101% and inactive: 106%	inactive: 96% and inactive: 102%	inactive: 123% and inactive: 109%
Clc1ccc(P(Cl)Cl)cc1	inactive: 99.2%	inactive: 96.5%	inactive: 85.9%	inactive: 107%	inactive: 102%	inactive: 81.7%	inactive: 111%	inactive: 96.4%	inactive: 99.6%	inactive: 107%
CCP(Cl)(Cl)(Cl)CC	inactive: 88.4%	inactive: 115%	inactive: 90%	inactive: 96.8%	inactive: 95.7%	inactive: 91.1%	inactive: 88.5%	inactive: 99.7%	inactive: 90.8%	inactive: 99.4%
O=[N+]([O-])c1ccc(Oc2cccc(Oc3ccc([N+](=O)[O-])cc3[N+](=O)[O-])c2)c([N+](=O)[O-])c1	inactive: 57.2%	inactive: 99.1%	inactive: 82.7%	inactive: 96.9%	inactive: 88.9%	inactive: 91.4%	inactive: 77.9%		active: 7.05%	inactive: 97.9%
O=P1(N(CCCl)CCCl)OCCC2CCCCN21 (stereo not drawn)	inactive: 105%	inactive: 108%	inactive: 97.5%	inactive: 99.7%	inactive: 103%	inactive: 98%	inactive: 113%	inactive: 96.4%		inactive: 116%
CC[C@H](C)[C@@H]1NC(=O)/C(=C(\C)O)C1=O	inactive: 106%	inactive: 110%	inactive: 85%	inactive: 92.6%	inactive: 96.8%	inactive: 108%	inactive: 91.5%		inactive: 93.6%	inactive: 101%
CN(C)P(=O)(N(C)C)n1c(Nc2ccccc2)nnc1-c1ccccc1	inactive: 99.6%	inactive: 84.3%	inactive: 82.3%	inactive: 95.7%	inactive: 98.9%	inactive: 86.7%	inactive: 98.1%	inactive: 78.6%	inactive: 94.2%	inactive: 105%
COc1ccc(N)c([N+](=O)[O-])c1[N+](=O)[O-]	inactive: 96%	inactive: 107%	inactive: 87.7%	inactive: 111%	inactive: 95.4%	inactive: 62.8%	inactive: 97.6%	inactive: 97.7%	inactive: 89%	inactive: 105%
O=c1ccc(Oc2ccc([N+](=O)[O-])cc2[N+](=O)[O-])nn1-c1ccc([N+](=O)[O-])cc1[N+](=O)[O-]	active: -68.8%	active: -65%	inactive: 73.9%	inactive: 93.8%	active: -93.3%	inactive: 49.6%	inactive: 68.4%		active: -85.4%	inactive: 27.6%
Nc1ccc(N=Nc2ccc([As](=O)(O)O)cc2)cc1	inactive: 100%	inactive: 97.4%	inactive: 85.7%	inactive: 107%	inactive: 107%	inactive: 99.8%		inactive: 111%	inactive: 104%	inactive: 109%
COc1ccc(C2N=C(NN=C(CCl)CCl)SP2(=O)Nc2ncccn2)c(OC)c1 (stereo not drawn)	inactive: 107% [100 µM]	inactive: 122% [100 µM]	inactive: 92.1% [100 µM]	inactive: 96.1% [100 µM]	inactive: 103% [100 µM]	inactive: 93.4% [100 µM]	inactive: 102% [100 µM]	inactive: 90.2% [100 µM]		inactive: 102% [100 µM]
Cc1nn(Cc2ccccc2)c(C)c1C1(O)C[C@H](CC#N)OC1=O (stereo partly drawn)	inactive: 119%	inactive: 114%	inactive: 105%	inactive: 110%	inactive: 111%	inactive: 102%	inactive: 97.2%	inactive: 104%	inactive: 107%	inactive: 125%
Fc1cccc(CNCCCl)c1	inactive: 106%	inactive: 112%	inactive: 99.7%	inactive: 119%	inactive: 103%	inactive: 99.8%		inactive: 121%	inactive: 106%	inactive: 114%
N/C(=N/[N+](=O)[O-])N(CCBr)N=O	inactive: 96.6%	inactive: 97%	inactive: 86.2%	inactive: 102%	inactive: 97%	inactive: 97.5%	inactive: 108%	inactive: 105%	inactive: 38.9%	inactive: 110%
CCN(CCCl)C(Cc1ccccc1)c1ccccc1 (stereo not drawn)	inactive: 101%	inactive: 84.1%	inactive: 99.9%	inactive: 97.5%	inactive: 92.9%	inactive: 88.8%	inactive: 99.9%	inactive: 78.4%	inactive: 97.9%	inactive: 106%
NCCSP(=O)(O)O	inactive: 103%	inactive: 104%	inactive: 98.5%	inactive: 99.7%	inactive: 104%	inactive: 95.6%		inactive: 96.4%	inactive: 115%	inactive: 112%
CCCCCCCNP(=S)(Cl)Cl	inactive: 101%	inactive: 115%	inactive: 93%	inactive: 104%	inactive: 101%	inactive: 101%	inactive: 104%	inactive: 96.7%	inactive: 102%	inactive: 102%
CCc1cc(O)c([N+](=O)[O-])c(C)c1[N+](=O)[O-]	inactive: 106%	inactive: 110%	inactive: 99.5%	inactive: 110%	inactive: 104%	inactive: 97.5%		inactive: 105%	inactive: 104%	inactive: 121%
COc1ccc([As](=O)(O)O)cc1	inactive: 105%	inactive: 108%	inactive: 82.2%	inactive: 101%	inactive: 99.1%	inactive: 97.1%	inactive: 102%	inactive: 105%	inactive: 45.9%	inactive: 109%
O=C(Oc1c(Cl)cc(Cl)cc1[N+](=O)[O-])c1cc([N+](=O)[O-])cc([N+](=O)[O-])c1	inactive: 105%	inactive: 111%	inactive: 103%	inactive: 118%	inactive: 104%	inactive: 87.2%	inactive: 104%	inactive: 106%	inactive: 94.6%	inactive: 116%
CCN(CCCl)CC1COc2ccccc2O1 (stereo not drawn)	inactive: 100%	inactive: 108%	inactive: 99.5%	inactive: 104%	inactive: 95%	inactive: 97%	inactive: 103%	inactive: 101%	inactive: 94.7%	inactive: 113%
CC1(CCC2(C)N=C(NN=C(CCl)CCl)SP2(=O)Nc2ncccn2)N=C(NN=C(CCl)CCl)SP1(=O)Nc1ncccn1 (stereo not drawn)	inactive: 108% [100 µM]	inactive: 105% [100 µM]	inactive: 81.6% [100 µM]	inactive: 105% [100 µM]	inactive: 98.2% [100 µM]	inactive: 94.7% [100 µM]	inactive: 103% [100 µM]	inactive: 98.2% [100 µM]		inactive: 108% [100 µM]
O=[As](O)(c1ccc(O)cc1)c1ccccc1O	inactive: 102%	inactive: 97%	inactive: 91.4%	inactive: 101%	inactive: 101%		inactive: 103%	inactive: 94.8%	inactive: 102%	inactive: 101%
CN(C)P1(Cl)=NP(Cl)(N(C)C)=NP(Cl)(N(C)C)=N1 (stereo not drawn)	inactive: 97.1%	inactive: 88.6%	inactive: 97.8%	inactive: 108%	inactive: 93.8%	inactive: 87.2%	inactive: 106%	inactive: 100%	inactive: 103%	inactive: 105%
O=[As](O)(c1cccs1)c1cccs1	inactive: 115%	inactive: 102%	inactive: 95.9%	inactive: 97.6%	inactive: 107%		inactive: 106%	inactive: 99.8%	inactive: 106%	inactive: 113%
